The source of these data is patent US10258599B2, “Compounds for use in the prevention or treatment of cancer” (SEMMELWEIS UNIVERSITY, priority 2014, dated 2019).

Protein sequences, listed by entry. Tags and fused reporters are not part of them.
UniProt P19643, whole entry: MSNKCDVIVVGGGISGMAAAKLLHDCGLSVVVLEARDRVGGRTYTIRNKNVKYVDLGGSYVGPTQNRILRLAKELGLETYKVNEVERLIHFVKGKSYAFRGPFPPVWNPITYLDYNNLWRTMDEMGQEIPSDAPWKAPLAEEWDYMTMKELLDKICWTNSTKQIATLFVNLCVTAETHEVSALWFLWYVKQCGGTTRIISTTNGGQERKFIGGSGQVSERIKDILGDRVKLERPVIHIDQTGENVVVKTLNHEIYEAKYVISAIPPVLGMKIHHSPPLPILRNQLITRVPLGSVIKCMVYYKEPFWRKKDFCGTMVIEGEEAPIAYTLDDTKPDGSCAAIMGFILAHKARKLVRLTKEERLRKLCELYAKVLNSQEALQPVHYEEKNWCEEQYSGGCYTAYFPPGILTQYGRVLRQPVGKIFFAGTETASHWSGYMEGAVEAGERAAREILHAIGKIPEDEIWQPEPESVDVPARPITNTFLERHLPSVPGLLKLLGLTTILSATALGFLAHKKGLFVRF

The test system of one assay is UW-228-2 cell line. The experiment in a line: MTT proliferation assay, UW-228-2 medulloblastoma cells. It counts as cell-based, human. To be noted: UW-228-2, 10^-13 or 10^-8 M combined with temozolomide, Cisplatin, etoposide or Vincristin. On the procedure:
(§1) Human medulloblastoma cell line, Daoy was purchased from ATCCC, UW-228 was obtained from the courtesy of Professor Silber (Univerity of Washington, Seattle, Wash., USA).
(§2) Daoy and UW-228-2 cell lines were maintained in culture medium (each 500 ml Minimum Essential Medium Eagle, Alpha Modification (M8042, Sigma, St Louis, USA) with 50 ml FCS (Gibco), 40 mg Gentamicin (Sandoz), 5 ml sodium-pyruvate (S8636, Sigma, St Louis, USA), 5 ml non-essential-amino acid solution (M7145, Sigma, St Louis, USA), 10 ml L-glutamin (Sigma, St Louis, USA) at 37° C. in humified 5% CO2.
(§3) In each well 3×10^3 Daoy or UW-228-2 cells were seeded in 96-well plates (Sarstedt), solved in 100 μl of its own medium with 10% FCS. 24 hours after seeding, cells were treated for 72 hours by drugs solved in further 100 μl medium. […]
(§4) Cell proliferation was evaluated by MTT (3-(4,5-Dimethylthiazol-2-yl)-2,5-diphenyltetrazolium bromide) assay (M5655, Sigma) after 72-hour treatment by the method described in manufacturer's protocol.
(Tetrazolium dyes change colour on reduction, which living cells bring about.)

Another assay concerns the target T1, MAO-B (Rattus norvegicus, UniProt P19643).
T1 construct: from tissue; host or cells: brain, in vivo dosing
To be noted: 0.25 mg/kg, earlier longevity studies; cited from earlier work.

A further assay relates to Daoy HTB-186 cell line. The experiment in a line: MTT proliferation assay, Daoy medulloblastoma cells. It counts as cell-based, human. To be noted: 10^-13 or 10^-8 M combined with temozolomide, Cisplatin, etoposide or Vincristin. On the procedure:
as §1, §2, §3, §4

Turning to `C#CCN(C)[C@H](C)Cc1ccccc1` [(−)-Deprenyl, (R)—N-methyl-N-(1-phenylpropan-2-yl)prop-2-yn-1-amine, reference compound], the “effectiveness of tumor-cell proliferation inhibiting agents in combination” value in the assay on UW-228-2 cell line and in the assay on Daoy HTB-186 cell line was “did not change the effectiveness” throughout. Besides, the “MAO-B activity in the brain” value on MAO-B was “completely blocks”.
